One assay concerns the target D2 (Homo sapiens, UniProt P14416). The experiment in a line: Receptor binding, D2. The following applies: @ 100 nM.
Another assay addresses SERT (Homo sapiens, UniProt P31645). The assay is described as follows: Receptor binding, SERT. The following applies: @ 200 nM.

Sequences of proteins named here, by UniProt entry; tags and fusion partners are left off. Residues count along the entry.
UniProt P14416, 1-414 isoform 2: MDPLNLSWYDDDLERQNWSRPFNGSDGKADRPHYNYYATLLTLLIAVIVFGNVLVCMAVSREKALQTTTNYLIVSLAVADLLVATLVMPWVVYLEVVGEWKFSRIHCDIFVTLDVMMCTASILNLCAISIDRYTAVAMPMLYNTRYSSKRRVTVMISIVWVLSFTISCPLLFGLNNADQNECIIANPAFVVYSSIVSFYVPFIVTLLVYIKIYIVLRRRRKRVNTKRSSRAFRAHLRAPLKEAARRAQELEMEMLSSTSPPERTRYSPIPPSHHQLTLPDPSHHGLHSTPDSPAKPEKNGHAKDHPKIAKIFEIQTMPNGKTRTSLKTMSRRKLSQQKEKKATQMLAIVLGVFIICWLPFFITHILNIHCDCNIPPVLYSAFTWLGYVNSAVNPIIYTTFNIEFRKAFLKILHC
UniProt P31645, whole entry: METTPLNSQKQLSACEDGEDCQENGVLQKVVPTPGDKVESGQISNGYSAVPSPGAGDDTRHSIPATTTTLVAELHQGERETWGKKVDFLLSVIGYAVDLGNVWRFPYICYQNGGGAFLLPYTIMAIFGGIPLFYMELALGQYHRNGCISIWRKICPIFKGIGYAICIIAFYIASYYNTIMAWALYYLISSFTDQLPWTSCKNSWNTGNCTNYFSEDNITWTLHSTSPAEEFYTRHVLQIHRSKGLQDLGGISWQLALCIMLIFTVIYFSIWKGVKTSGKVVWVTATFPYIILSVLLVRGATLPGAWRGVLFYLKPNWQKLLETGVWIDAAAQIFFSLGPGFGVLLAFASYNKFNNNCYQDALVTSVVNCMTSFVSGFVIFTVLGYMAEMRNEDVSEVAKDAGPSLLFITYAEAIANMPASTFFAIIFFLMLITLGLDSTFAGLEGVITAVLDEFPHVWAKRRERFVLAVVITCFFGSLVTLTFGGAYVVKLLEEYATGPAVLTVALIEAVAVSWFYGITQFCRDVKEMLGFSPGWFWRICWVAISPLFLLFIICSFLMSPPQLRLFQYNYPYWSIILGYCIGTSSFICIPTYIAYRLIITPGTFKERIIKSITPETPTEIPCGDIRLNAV

The structures appear in SMILES notation.

On to `O=C1CN2c3c(cccc3[C@@H]3CN(CCCOc4ccc(F)c(O)c4)CC[C@@H]32)N1`, for which the maximum inhibition on D2 is 0% @.

`O=C1CN2c3c(cccc3[C@@H]3CN(CCCOc4ccc(F)cc4O)CC[C@@H]32)N1` returned a maximum inhibition on SERT of 5% @.

Values taken from patent US20220184072A1 (priority 2019, published 2022).
